# Test results: PubChem BioAssay AID602396 (The Scripps Research Institute Molecular Screening Center, 2012)
# Amino acid sequences for entries named in this document (tags omitted).
# UniProt O00482, whole entry: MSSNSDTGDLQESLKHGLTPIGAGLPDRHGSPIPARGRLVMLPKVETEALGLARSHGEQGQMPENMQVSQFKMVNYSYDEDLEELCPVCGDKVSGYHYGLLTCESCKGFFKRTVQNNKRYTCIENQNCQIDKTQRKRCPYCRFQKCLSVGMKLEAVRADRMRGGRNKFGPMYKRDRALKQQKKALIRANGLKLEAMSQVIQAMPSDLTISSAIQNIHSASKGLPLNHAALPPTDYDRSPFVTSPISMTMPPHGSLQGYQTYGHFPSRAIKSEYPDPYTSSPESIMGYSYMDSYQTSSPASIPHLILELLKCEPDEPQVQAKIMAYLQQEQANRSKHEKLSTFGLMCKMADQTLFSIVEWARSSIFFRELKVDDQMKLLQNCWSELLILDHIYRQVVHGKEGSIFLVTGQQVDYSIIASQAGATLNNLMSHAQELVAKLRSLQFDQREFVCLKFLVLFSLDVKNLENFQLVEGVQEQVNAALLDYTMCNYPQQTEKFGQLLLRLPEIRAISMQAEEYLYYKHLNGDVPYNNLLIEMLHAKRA
# The list shows a part of the results, in another mix than the full data. Calls of active or inactive are those of the source.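 Rule for the calls: active = inhibition above the mean inhibition of all tested compounds plus 3 SD (cut at about 73% in these data); inactive = the rest.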
# Molecular target: Nuclear receptor subfamily 5 group A member 2 (Homo sapiens) (UniProt O00482)
# Experiment: LRH-1 (NR5A2) inverse agonists, primary screen, cell-based, luminescence, HEK293T, StAR-luciferase reporter (AID 602396);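 note: 0% = DMSO wells and 100% = reporter-only cells lacking LRH-1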
# Details: LRH-1 transfected, 24 h, at 3.6 µM, active compounds read high
row,Compound,inhibition
1,CC(C)(C)OC(=O)N1CCC(N(C(=O)c2ccccc2)c2ccc(Cl)cc2)CC1,inactive: 5.23%
2,N#Cc1ccc(C(=O)NCC2(N3CCCCC3)CCCCC2)cc1,inactive: -29%
3,CC(C)(C)n1nnnc1C(c1cccc2ccccc12)N1CCC(n2c(=O)[nH]c3ccccc32)CC1 (stereo unspecified),inactive: 20.4%
4,O=c1[nH]c2ccccc2n1C1CCN(C(c2ccccc2)c2nnnn2C2CCCC2)CC1 (stereo unspecified),inactive: 10.4%
5,CCCN1CCC(Nc2cc(OC)cc(OC)c2)CC1,inactive: -6.23%
6,Cc1cc(N(CCCl)CCCl)ccc1C=O,inactive: 21.4%
7,c1ccc(CN2CCC(Nc3ccccc3)CC2)cc1,inactive: -3.27%
8,CN(C)C1(CNC(=O)c2cccc(C#N)c2)CCCCC1,inactive: 14.3%
9,O=c1[nH]c2ccccc2n1C1CCN(C(c2ccnc3ccccc23)c2nnnn2C2CCCC2)CC1 (stereo unspecified),inactive: -10.3%
10,COc1ccc(C(=O)NCC2(N3CCOCC3)CCCCC2)cc1OC,inactive: -14.8%
11,O=c1[nH]c2ccccc2n1C1CCN(C(c2cccs2)c2nnnn2C2CCCCC2)CC1 (stereo unspecified),inactive: 13.7%
12,O=C(NCC1(N2CCOCC2)CCCCC1)c1cc(Br)ccc1Cl,inactive: -21%
13,COc1cc(C(=O)NCC2(N3CCOCC3)CCCCC2)cc(OC)c1C,inactive: 8.78%
14,CCCCn1nnnc1C(c1ccccc1)N1CCC(n2c(=O)[nH]c3ccccc32)CC1 (stereo unspecified),inactive: -3.23%
15,CCCCn1nnnc1C(c1cccc(OC)c1OC)N1CCC(n2c(=O)[nH]c3ccccc32)CC1 (stereo unspecified),inactive: 9.69%
16,O=c1[nH]c2ccccc2n1C1CCN(C(c2cccs2)c2nnnn2C2CCCC2)CC1 (stereo unspecified),inactive: -5.1%
17,O=C(OC1CN2CCC1CC2)C1c2ccccc2C=Cc2ccccc21 (stereo unspecified),inactive: 13.8%
18,N/C(=N\O)c1c(N)no[n+]1[O-],inactive: -9.13%
19,COc1cccc(C(c2nnnn2C(C)(C)C)N2CCC(n3c(=O)[nH]c4ccccc43)CC2)c1OC (stereo unspecified),inactive: -9.19%
20,CCOC(=O)N1CCC(Nc2ccc(C)cc2)CC1,inactive: -9.96%
21,CCCCn1nnnc1C(c1ccnc2ccccc12)N1CCC(n2c(=O)[nH]c3ccccc32)CC1 (stereo unspecified),inactive: -23.5%

row,Compound,inhibition
1,CCC(c1nnnn1C(C)(C)C)N1CCC(n2c(=O)[nH]c3ccccc32)CC1 (stereo unspecified),inactive: 16.3%
2,O=C(NCC1(N2CCOCC2)CCCCC1)c1cc(F)c(F)cc1Cl,inactive: -5.78%
3,COc1cc(OC)c(C(=O)NCC2(N(C)C)CCCCC2)cc1OC,inactive: 19.3%
4,CN(C)c1cccc(C(=O)NCC2(N3CCCCC3)CCCCC2)c1,inactive: -11.9%
5,COc1ccc(CN(CCCl)CCCl)cc1Cl,inactive: -6.68%
6,CC(C)c1ccc(NC2CCN(C(=O)OC(C)(C)C)CC2)cc1,inactive: -56%
7,CCCCn1nnnc1C(c1ccccc1OC(F)(F)F)N1CCC(n2c(=O)[nH]c3ccccc32)CC1 (stereo unspecified),inactive: 13.3%
8,CCCOc1ccc(C(=O)NCC2(N(C)C)CCCCC2)cc1OC,inactive: 1.16%
9,Cc1ccc(C(=O)NCC2(N(C)C)CCCCC2)o1,inactive: -0.57%
10,COc1ccc(C(c2nnnn2C2CCCC2)N2CCC(n3c(=O)[nH]c4ccccc43)CC2)cc1 (stereo unspecified),inactive: -3.95%
11,O=C(NCC1(N2CCCCC2)CCCCC1)c1cncc(Br)c1,inactive: -14.2%
12,CN1CCC(Nc2cccc(F)c2)CC1,inactive: 18%
13,CSc1ccc(C(=O)NCC2(N3CCOCC3)CCCCC2)cc1,inactive: -44.5%
14,O=C(NCC1(N2CCCCC2)CCCCC1)c1cccc([N+](=O)[O-])c1,inactive: -22.3%
15,N#CC1(Nc2ccccc2)CCN(CCc2ccccc2)CC1,inactive: 6.69%
16,O=c1[nH]c2ccccc2n1C1CCN(C(c2ccccc2OC(F)(F)F)c2nnnn2C2CCCC2)CC1 (stereo unspecified),inactive: -21.8%
17,CCN1CCC(Nc2ccc(Cl)cc2)CC1,inactive: -0.67%
18,O=C(NCC1(N2CCCCC2)CCCCC1)c1ccc(OC(F)F)cc1,inactive: -15.8%
19,CC(C)(C)n1nnnc1C(c1ccccc1OC(F)(F)F)N1CCC(n2c(=O)[nH]c3ccccc32)CC1 (stereo unspecified),inactive: 15.6%
20,CCCCn1nnnc1C(c1cccc2ccccc12)N1CCC(n2c(=O)[nH]c3ccccc32)CC1 (stereo unspecified),inactive: 6.31%
21,CN1CCN(CCOC(=O)C(O)(c2ccccc2)c2ccccc2)CC1,inactive: -6.04%

row,Compound,inhibition
1,COc1ccc(NC2CCN(C(=O)OC(C)(C)C)CC2)cc1,inactive: -7.49%
2,CC(C)c1ccc(C(=O)NCC2(N3CCOCC3)CCCCC2)cc1,inactive: -30.5%
3,COc1cc(C(=O)NCC2(N3CCCCC3)CCCCC2)ccc1OC(F)F,inactive: -50.9%
4,O=C(NCC1(N2CCOCC2)CCCCC1)c1cc(=O)[nH]c2ccccc12,inactive: -12.6%
5,O=C(NCC1(N2CCCCC2)CCCCC1)c1cccc(C(F)(F)F)c1,inactive: -18.4%
6,COc1ccc(NC2CCN(CCc3ccccc3)CC2)c(OC)c1,inactive: 1.36%
7,CCOC(=O)N1CCC(Nc2ccc(F)cc2)CC1,inactive: 15.5%
8,O=C(NCC1(N2CCCCC2)CCCCC1)c1ccc(F)cc1,inactive: -13.7%
9,O=P1(N(CCCl)CCCl)SCCCS1,inactive: -16.1%
10,CCCCn1nnnc1C(c1cc2ccccc2o1)N1CCC(n2c(=O)[nH]c3ccccc32)CC1 (stereo unspecified),inactive: -21.5%
11,CCCCOc1ccc(C(=O)NCC2(N3CCOCC3)CCCCC2)cc1,inactive: -9.61%
12,CCOc1ccc(C)cc1CN(CCCl)CCCl,inactive: 13.8%
13,O=C1CCN(Cc2ccccc2)CC1,inactive: -7.1%
14,CC(C)(C)n1nnnc1C(c1ccccc1)N1CCC(n2c(=O)[nH]c3ccccc32)CC1 (stereo unspecified),inactive: -0.14%
15,O=c1[nH]c2ccccc2n1C1CCN(C(c2cccc3ccccc23)c2nnnn2C2CCCC2)CC1 (stereo unspecified),inactive: 16.2%
16,COc1cc(C(=O)NCC2(N(C)C)CCCCC2)ccc1OC(F)F,inactive: 15.9%
17,CCOC(=O)N1CCC(Nc2cccc(C)c2)CC1,inactive: -12.6%
18,O=c1[nH]c2ccccc2n1C1CCN(C(c2ccccc2)c2nnnn2C2CCCCC2)CC1 (stereo unspecified),inactive: -34.4%
19,Cc1cccc(NC2(C#N)CCN(Cc3ccccc3)CC2)c1,inactive: -4.73%
20,CSc1ccccc1C(=O)NCC1(N2CCCCC2)CCCCC1,inactive: 0.08%
21,CCCCn1nnnc1C(c1cccs1)N1CCC(n2c(=O)[nH]c3ccccc32)CC1 (stereo unspecified),inactive: 6.98%

row,Compound,inhibition
1,CCCCn1nnnc1C(CC)N1CCC(n2c(=O)[nH]c3ccccc32)CC1 (stereo unspecified),inactive: -18.9%
2,O=C(NCC1(N2CCCCC2)CCCCC1)c1cccs1,inactive: -14.3%
3,O=C(NCC1(N2CCCCC2)CCCCC1)c1ccc(=O)[nH]c1,inactive: -78.8%
4,CCC(c1nnnn1C1CCCC1)N1CCC(n2c(=O)[nH]c3ccccc32)CC1 (stereo unspecified),inactive: -18%
5,COc1ccc(C(=O)NCC2(N3CCCCC3)CCCCC2)c(OC)c1OC,inactive: 0.61%
6,CC(C)(C)OC(=O)N1CCC(N(C(=O)c2ccccc2)c2ccc(F)cc2)CC1,inactive: -16%
7,COc1ccc(C(=O)NCC2(N3CCCCC3)CCCCC2)cc1,inactive: -23.5%
8,CCCCn1nnnc1C(c1ccc(OC)cc1)N1CCC(n2c(=O)[nH]c3ccccc32)CC1 (stereo unspecified),inactive: -7.39%
9,CCOC(=O)N1CCC(Nc2ccc(OC)cc2)CC1,inactive: 2.18%
10,COc1ccc(Cl)cc1C(=O)NCC1(N2CCOCC2)CCCCC1,inactive: -19.6%
11,O=C(OC1CN2CCC1CC2)C1c2ccccc2Oc2ccccc21 (stereo unspecified),inactive: -5.82%
12,O=c1[nH]c2ccccc2n1C1CCN(C(c2cc3ccccc3o2)c2nnnn2C2CCCCC2)CC1 (stereo unspecified),inactive: 15.8%
13,N#CC1(Nc2ccccc2)CCN(Cc2ccccc2)CC1,inactive: -4.75%
14,O=C(NCC1(N2CCCCC2)CCCCC1)c1ccc(Cl)s1,inactive: -9.5%
15,O=C(NCC1(N2CCOCC2)CCCCC1)c1cc2ccccc2o1,inactive: 14.7%
16,Cc1cc(C)cc(N(C(=O)c2ccccc2)C2CCN(C(=O)OC(C)(C)C)CC2)c1,inactive: 4.22%
17,O=c1[nH]c2ccccc2n1C1CCN(C(c2ccccc2OC(F)(F)F)c2nnnn2C2CCCCC2)CC1 (stereo unspecified),inactive: -26.4%
18,O=C(NCC1(N2CCCCC2)CCCCC1)c1ccc(Cl)nc1,inactive: -64.6%
